Results on 9 compounds are retold here after ChEMBL document CHEMBL5726014, “N-aralkylcarbonyl-piperazine and -homopiperazine compounds and personal care compositions comprising the same” (2018).

Sequences of proteins named here, by UniProt entry; tags and fusion partners are left off.
UniProt P20309, whole entry, looked up: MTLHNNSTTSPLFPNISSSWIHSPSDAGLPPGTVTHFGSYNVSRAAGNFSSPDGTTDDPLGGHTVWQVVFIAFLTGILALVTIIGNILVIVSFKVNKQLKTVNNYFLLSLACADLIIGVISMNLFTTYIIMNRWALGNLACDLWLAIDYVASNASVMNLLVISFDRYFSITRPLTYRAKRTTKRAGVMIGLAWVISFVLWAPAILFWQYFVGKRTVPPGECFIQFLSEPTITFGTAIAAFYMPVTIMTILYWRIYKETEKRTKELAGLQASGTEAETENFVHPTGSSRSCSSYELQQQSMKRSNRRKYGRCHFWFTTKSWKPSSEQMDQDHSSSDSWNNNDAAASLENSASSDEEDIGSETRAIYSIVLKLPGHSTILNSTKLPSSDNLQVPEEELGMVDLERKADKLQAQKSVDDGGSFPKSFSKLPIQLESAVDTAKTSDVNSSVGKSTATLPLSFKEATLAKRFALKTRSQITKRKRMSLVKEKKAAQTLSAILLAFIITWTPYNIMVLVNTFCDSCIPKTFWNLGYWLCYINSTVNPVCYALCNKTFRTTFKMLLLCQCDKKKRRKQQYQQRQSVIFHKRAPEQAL

The assay deals with Muscarinic acetylcholine receptor M3 (Homo sapiens, UniProt P20309).
Turning to `CN1CCCN(C(=O)C(O)(c2ccccc2)C2CCCC2)CC1` (centres undefined), the IC50 (in general, the concentration needed to halve the response being measured) amounted to 9.5 nM. In other words, the single-digit nanomolar range.
Under `O=C(N1CCCN(CCCc2ccccc2)CC1)C(O)(c1ccccc1)C1CCCC1` (centres undefined) stands 266 nM.
Under `COc1ccc(CCN2CCN(C(=O)C(O)(c3ccccc3)C3CCCC3)CC2)cc1OC` (centres undefined) stands 5700 nM; under `O=C(N1CCN(CCCCc2ccccc2)CC1)C(O)(c1ccccc1)C1CCCC1` (centres undefined), 609 nM; under `CN1CCN(C(=O)C(O)(c2ccccc2)C2CCCC2)CC1` (centres undefined), 1400 nM.
Under `COc1ccc(CC(C)N2CCN(C(=O)C(O)(c3ccccc3)C3CCCC3)CC2)cc1` (centres undefined) stands 3000 nM; under `COc1ccc(C(=O)CN2CCN(C(=O)C(O)(c3ccccc3)C3CCCC3)CC2)cc1` (centres undefined), 3900 nM.
On to `CC(CCc1ccccc1)N1CCN(C(=O)C(O)(c2ccccc2)C2CCCC2)CC1` (centres undefined), for which the IC50 worked out at 144 nM.
The same measure for `O=C(CCN1CCN(C(=O)C(O)(c2ccccc2)C2CCCC2)CC1)c1ccccc1` (centres undefined): 346 nM.
